# Results published in PubChem BioAssay AID686971 (National Center for Advancing Translational Sciences (NCATS), 2013).
# The entries are a selection whose mix differs from that of the whole data set. Results filed as inconclusive are left out. The source made the active and inactive calls. Calls follow the shape of the dose curve; as a rule, active = well fitted cell-killing curve with a large enough effect; inconclusive = small, poorly fitted or top-dose-only effect, or effect the other way, or another doubt; inactive = no such curve, though single readings can be large or run the other way.
# Experiment: qHTS for induction of synthetic lethality in tumor cells producing 2HG: qHTS for the HT-1080-IDH1KD cell line;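 as to activity, negative = toxicity: 0% = DMSO wells and -100% = cell-free medium wells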
# Conditions: HT-1080 IDH1 knockdown viability, ATP luminescence, 48 h; series mostly up to 46.1 µM
# Potency is read from the fitted curve at half-maximal effect.
SMILES,Potency,"activity, negative = toxicity"
COc1cc(C(=O)NCC2(N3CCOCC3)CCCCC2)ccc1OCC(C)C,inactive,
CCN(CC)CCCOC(=O)C(O)(c1ccccc1)c1ccccc1,inactive,
CC(O)C1C=CC=CC(=O)OC2CC3OC4C5OC5(C)CCC4(COC(=O)C4OC4(C)C(O)CO1)C2(C)C31CO1 (stereo not drawn),active: 92 nM,
CC1CCOC(=O)C=CC=CC(=O)OC2CC3OC4C5OC5(C)C(O)CC4(COC(=O)C1O)C2(C)C31CO1 (stereo not drawn),active: 116 nM,
CCCCOc1ccc(C(=O)NCC2(N3CCCCC3)CCCCC2)cc1OC,inactive,
CC1CCOC(=O)C=CC=CC(=O)OC2CC3OC4C5OC5(C)CCC4(COC(=O)C1O)C2(C)C31CO1 (stereo not drawn),active: 32.6 nM,
CN(C)C1(CNC(=O)c2ccc(S(C)(=O)=O)cc2)CCCCC1,inactive,
CP(=O)(Nc1ccc(SC(F)(F)F)cc1)Oc1ccccc1 (stereo not drawn),active: 20600 nM,
CN1CCCCC1COC(=O)C1(O)c2ccccc2CCc2ccccc21 (stereo not drawn),inactive,
C=C(C=O)CC1CC(O)[C@]2(C)OC3CC4OC5C[C@]6(C)O[C@]7(C)CCC8OC9C[C@]%10(C)OC%11C(C)=CC(=O)OC%11CC%10OC9C[C@@H](C)C8OC7CC6O[C@]5(C)CC5OC5C4OC3CC2O1 (stereo partly drawn),active: 1160 nM,
COc1cc(C(=O)NCC2(N3CCOCC3)CCCCC2)cc(Cl)c1OC(C)C,inactive,
CCN(CC)CCCOC(=O)C(O)(c1ccccc1)C1CCCCC1 (stereo not drawn),inactive,
CC1=CC2OC3CC4OC(=O)C=CC=CC(=O)OCCC(C)C(O)C(=O)OCC2(CC1)C4(C)C31CO1 (stereo not drawn),active: 8.2 nM,
O=C(OCCN1CCN(CCOCc2ccccc2)CC1)C(O)(c1ccccc1)c1ccccc1,inactive,
CC1=CC2OC3CC4OC(=O)C=CC=CC(=O)OCCC(C)C(O)C(=O)OCC2(CC1O)C4(C)C31CO1 (stereo not drawn),active: 146 nM,
CN(C)CCOC(=O)C(O)(c1ccccc1)C1CCCCC1 (stereo not drawn),inactive,
CN(C)C1(CNC(=O)c2ccc(Cl)c(S(N)(=O)=O)c2)CCCCC1,inactive,
O=[N+]([O-])c1ccc(OP2(=O)COCCO2)cc1 (stereo not drawn),inactive,
O=C(OCCCN1CCCC1)C(O)(c1ccccc1)C1CCCCC1 (stereo not drawn),inactive,
CCN(CC)CC(O)COC(=O)C(O)(c1ccccc1)C1CCCCC1 (stereo not drawn),inactive,
CC1=CC2OC3CC4OC(=O)/C=C/C=CC(C(C)O)OCC(O)C(C)CC(=O)OCC2(CC1O)C4(C)C31CO1 (stereo not drawn),active: 23.1 nM,
CN(C)CCOC(=O)C(O)(c1ccccc1)C1CCCC1 (stereo not drawn),,inactive: -25.4% [at 9.24 µM]
CC(=O)OC1C(=O)OCC23CCC4(C)OC4C2OC2CC(OC(=O)C=CC=CC(=O)OCCC1C)C3(C)C21CO1 (stereo not drawn),active: 184 nM,
CC1=CC2OC3CC4OC(=O)C=CC=CC(C(C)O)OCC(O)C5(C)OC5C(=O)OCC2(CC1O)C4(C)C31CO1 (stereo not drawn),active: 29.1 nM,
C[C@H]1[C@@H](OS(=O)(=O)O)C[C@@H]2C[C@H]([C@@H](O)c3cc(=O)[nH]c(=O)[nH]3)NC3=NC[C@H]1N32,active: 2060 nM,
CC(O)C1C=CC=CC(=O)OC2CC3OC4C5OC5(C)C(O)CC4(COC(=O)C(O)C(C)CCO1)C2(C)C31CO1 (stereo not drawn),active: 517 nM,
C=C(C=O)C[C@@H]1C[C@H](O)C2OC3C[C@]4(C)OC5/C=C\CC6OC7C(CC=CCC6OC5CCCC4OC3CC2O1)OC1CC2OC3CC(=O)OC3C[C@@H](C)C[C@@]2(C)OC1C[C@@H]7C (stereo partly drawn),active: 4610 nM,
CC(=O)O[C@H]1C[C@@H]2OC3C=C(C)CCC3(C)[C@@]1(C)[C@@]21CO1 (stereo partly drawn),active: 2060 nM,
